According to paper PMC3917506:

Biological target: Venus-IQGAP1 (human) (UniProt P46940)
Test: FRET or BRET

FRET efficiency E% at low D:A ratios (regression line): 25% | average FRET efficiency E%: 23%
Substance: CFP-Rac1 (from UniProt P63000 1-192) (natural protein; other documents disagree on this pair)
